Results: ChEMBL document CHEMBL1134264, “Identification of a subtype selective human PPARalpha agonist through parallel-array synthesis” (Bioorg Med Chem Lett, 2001)

Sequences of proteins named here, by UniProt entry; tags and fusion partners are left off.
UniProt P37238, whole entry: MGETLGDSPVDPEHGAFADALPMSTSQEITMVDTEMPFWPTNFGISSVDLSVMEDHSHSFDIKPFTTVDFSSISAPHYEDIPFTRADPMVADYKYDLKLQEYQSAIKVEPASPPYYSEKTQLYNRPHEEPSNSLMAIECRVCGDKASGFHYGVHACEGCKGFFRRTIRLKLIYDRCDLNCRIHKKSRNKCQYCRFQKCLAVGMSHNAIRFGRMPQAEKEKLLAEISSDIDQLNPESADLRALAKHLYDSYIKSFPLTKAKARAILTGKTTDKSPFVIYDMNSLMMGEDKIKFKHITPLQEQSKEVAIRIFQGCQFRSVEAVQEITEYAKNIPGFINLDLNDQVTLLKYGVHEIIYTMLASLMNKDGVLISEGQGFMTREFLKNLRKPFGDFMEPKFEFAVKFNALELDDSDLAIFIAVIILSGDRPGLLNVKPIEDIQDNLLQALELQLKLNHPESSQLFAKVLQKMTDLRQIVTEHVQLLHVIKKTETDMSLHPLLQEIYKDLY

Key:
[1] = target: T1, Peroxisome proliferator-activated receptor delta (Mus musculus, UniProt P35396)
T1 sequence (P35396 whole entry): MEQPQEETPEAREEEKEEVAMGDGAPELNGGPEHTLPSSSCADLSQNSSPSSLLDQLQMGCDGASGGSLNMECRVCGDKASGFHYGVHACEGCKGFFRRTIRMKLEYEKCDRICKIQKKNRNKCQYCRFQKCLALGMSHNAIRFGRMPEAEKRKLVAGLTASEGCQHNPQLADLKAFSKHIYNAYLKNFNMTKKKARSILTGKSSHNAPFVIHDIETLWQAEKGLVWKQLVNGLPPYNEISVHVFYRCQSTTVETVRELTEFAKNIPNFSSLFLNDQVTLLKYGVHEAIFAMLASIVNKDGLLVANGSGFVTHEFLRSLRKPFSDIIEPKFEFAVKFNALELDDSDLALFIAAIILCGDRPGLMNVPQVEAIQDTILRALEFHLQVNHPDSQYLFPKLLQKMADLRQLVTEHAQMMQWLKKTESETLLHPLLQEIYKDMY

[2] = target: Peroxisome proliferator-activated receptor gamma (Mus musculus, UniProt P37238)

EC50 [1]: 2900 nM
EC50 [2]: 1300 nM
Structure (SMILES): CC(C)(Sc1ccc(CCN(CCCCC2CCCCC2)C(=O)NC2CCCCC2)cc1)C(=O)O [GW7647]
